Assay results: ChEMBL document CHEMBL5126609, “Design, Synthesis, and Pharmacological Evaluation of Benzimidazolo-thiazoles as Potent CXCR3 Antagonists with Therapeutic Potential in Autoimmune Diseases: Discovery of ACT-672125” (J Med Chem, 2022)

Chains of the proteins cited; added tags and fusions are not shown. Lines headed by an entry give the natural chain unless they say otherwise; changes in a name come on top.
UniProt P41597: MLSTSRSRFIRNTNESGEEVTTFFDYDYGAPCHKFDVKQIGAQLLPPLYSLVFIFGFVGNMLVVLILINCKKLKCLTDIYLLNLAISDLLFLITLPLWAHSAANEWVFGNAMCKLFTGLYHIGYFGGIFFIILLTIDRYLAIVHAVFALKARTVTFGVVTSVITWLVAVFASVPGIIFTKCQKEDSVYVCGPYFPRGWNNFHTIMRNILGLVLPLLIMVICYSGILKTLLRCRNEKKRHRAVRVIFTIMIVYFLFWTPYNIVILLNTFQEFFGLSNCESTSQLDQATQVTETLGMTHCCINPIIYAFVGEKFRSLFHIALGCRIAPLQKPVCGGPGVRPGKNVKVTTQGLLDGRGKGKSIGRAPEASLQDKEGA
UniProt P61073, whole entry: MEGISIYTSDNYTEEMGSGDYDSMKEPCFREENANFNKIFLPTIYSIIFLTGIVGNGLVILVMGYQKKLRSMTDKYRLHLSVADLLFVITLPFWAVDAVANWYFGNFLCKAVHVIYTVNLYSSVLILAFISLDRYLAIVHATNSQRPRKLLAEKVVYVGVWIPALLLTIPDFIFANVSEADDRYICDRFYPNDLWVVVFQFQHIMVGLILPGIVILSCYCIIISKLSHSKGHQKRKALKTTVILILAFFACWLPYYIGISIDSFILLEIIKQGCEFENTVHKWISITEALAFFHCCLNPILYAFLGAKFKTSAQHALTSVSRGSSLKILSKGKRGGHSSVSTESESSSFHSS
UniProt P25106: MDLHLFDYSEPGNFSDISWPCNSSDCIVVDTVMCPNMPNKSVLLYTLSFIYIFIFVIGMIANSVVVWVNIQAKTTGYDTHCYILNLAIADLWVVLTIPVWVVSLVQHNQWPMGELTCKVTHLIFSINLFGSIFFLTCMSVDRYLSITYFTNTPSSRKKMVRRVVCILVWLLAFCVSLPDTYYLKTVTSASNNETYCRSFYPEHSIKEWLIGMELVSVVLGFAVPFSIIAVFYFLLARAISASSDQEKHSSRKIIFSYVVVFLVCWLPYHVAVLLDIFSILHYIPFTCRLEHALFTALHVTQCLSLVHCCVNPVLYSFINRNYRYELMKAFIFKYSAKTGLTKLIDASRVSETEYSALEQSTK

Columns and labels:
[1] = target: T1, C-C chemokine receptor type 1 (Homo sapiens) (UniProt P32246); assay: Inhibition of CCR1 (unknown origin) at 10 uM relative to control
T1 sequence (whole entry): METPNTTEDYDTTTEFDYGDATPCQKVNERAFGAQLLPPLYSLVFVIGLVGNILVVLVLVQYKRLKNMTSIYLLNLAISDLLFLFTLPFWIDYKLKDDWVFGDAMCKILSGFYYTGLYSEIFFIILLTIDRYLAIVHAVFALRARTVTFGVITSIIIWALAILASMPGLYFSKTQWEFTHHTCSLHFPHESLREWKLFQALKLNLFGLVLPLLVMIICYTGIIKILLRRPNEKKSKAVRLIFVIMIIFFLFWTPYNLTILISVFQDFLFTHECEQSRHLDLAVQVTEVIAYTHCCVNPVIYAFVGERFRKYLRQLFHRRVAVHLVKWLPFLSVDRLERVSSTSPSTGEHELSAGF

[2] = target: T2, C-X-C chemokine receptor type 5 (Homo sapiens) (UniProt P32302); assay: Inhibition of CXCR5 (unknown origin) at 10 uM relative to control
T2 sequence (whole entry): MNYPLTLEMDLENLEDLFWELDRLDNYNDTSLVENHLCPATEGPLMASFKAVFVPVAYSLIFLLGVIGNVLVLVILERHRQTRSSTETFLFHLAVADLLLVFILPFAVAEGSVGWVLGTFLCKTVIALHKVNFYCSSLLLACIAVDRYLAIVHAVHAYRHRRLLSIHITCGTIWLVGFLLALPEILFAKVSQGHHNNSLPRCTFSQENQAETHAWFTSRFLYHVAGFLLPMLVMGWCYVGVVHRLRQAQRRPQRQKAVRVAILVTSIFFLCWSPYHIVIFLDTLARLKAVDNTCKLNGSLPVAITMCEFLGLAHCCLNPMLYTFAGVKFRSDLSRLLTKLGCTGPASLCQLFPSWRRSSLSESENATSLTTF

[3] = target: T3, C-C chemokine receptor type 6 (Homo sapiens) (UniProt P51684); assay: Inhibition of CCR6 (unknown origin) at 10 uM relative to control
T3 sequence (whole entry): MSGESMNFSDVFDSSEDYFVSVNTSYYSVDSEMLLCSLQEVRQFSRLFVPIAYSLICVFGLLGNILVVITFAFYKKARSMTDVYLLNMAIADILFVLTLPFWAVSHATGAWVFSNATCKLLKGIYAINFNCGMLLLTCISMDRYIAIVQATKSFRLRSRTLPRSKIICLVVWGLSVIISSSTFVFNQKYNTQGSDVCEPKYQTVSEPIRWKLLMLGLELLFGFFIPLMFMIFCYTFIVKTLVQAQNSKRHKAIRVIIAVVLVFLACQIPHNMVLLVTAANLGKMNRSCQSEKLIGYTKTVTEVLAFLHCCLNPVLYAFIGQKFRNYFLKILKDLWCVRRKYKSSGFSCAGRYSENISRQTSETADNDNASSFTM

[4] = target: C-C chemokine receptor type 2 (Homo sapiens) (UniProt P41597); assay: Inhibition of CCR2 (unknown origin) at 10 uM relative to control
[5] = target: C-X-C chemokine receptor type 4 (Homo sapiens) (UniProt P61073); assay: Inhibition of CXCR4 (unknown origin) at 10 uM relative to control
[6] = target: T4, C-C chemokine receptor type 3 (Homo sapiens) (UniProt P51677); assay: Inhibition of CCR3 (unknown origin) at 10 uM relative to control
T4 sequence (whole entry): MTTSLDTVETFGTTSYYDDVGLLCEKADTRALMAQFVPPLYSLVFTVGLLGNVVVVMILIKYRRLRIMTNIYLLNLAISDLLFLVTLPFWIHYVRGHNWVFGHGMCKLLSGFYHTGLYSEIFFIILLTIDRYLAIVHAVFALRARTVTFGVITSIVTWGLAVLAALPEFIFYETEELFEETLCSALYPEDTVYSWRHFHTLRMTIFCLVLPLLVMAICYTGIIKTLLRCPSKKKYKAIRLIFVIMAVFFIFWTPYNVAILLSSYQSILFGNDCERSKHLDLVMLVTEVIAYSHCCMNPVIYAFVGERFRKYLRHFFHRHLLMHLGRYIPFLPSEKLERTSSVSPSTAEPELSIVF

[7] = target: Atypical chemokine receptor 3 (Homo sapiens) (UniProt P25106); assay: Inhibition of CXCR7 (unknown origin) at 10 uM relative to control

Measured: inhibition

Cc1nc(C)n(CC(=O)N2CCN(c3sc(C(F)(F)F)nc3-c3nc4ccc(-c5noc(C)n5)cc4[nH]3)C[C@H]2C)n1
< 50%: all assays above
